Experimental data reported in publication PMC12559223, “Structural basis of apoptosis induction by the mitochondrial voltage-dependent anion channel” (Nature Communications, 2025).
Positions of bridges follow the written chain, without caps; N, C: chain ends. Non-standard residues stand in square brackets, D forms with d. Residues, ends and D or L forms follow the SMILES beside them. S5 = C=CCCC[C@](C)(N)C(=O)O

Columns and labels:
BakΔTM = test: Liposome pore-forming assay, direct activation of Bak without BclxL; assay type: biochemical
Experimental: The liposome permeabilization assays were performed at 30 °C on a SpectraMax iD5 multimode plate reader (Molecular Devices) controlled by the SoftMax Pro 7 software as previously described[66],[91]. Briefly, 40–50 nM cBid, 50 nM BclxLΔTM, and 1–100 µM VDAC-N peptides were used for measurements at low BakΔTM concentrations (50–200 nM), whereas 1 µM BakΔTM and 500 nM BclxLΔTM were used for measurements under auto-active BakΔTM conditions. VDAC1-N peptide was titrated into the Bak-BclxL complex from 10 to 100 µM under cBid-activated conditions and from 25 to 100 µM under auto-active BakΔTM conditions. For comparison of VDAC1-N WT peptide to VDAC1-N L10A (refer to Supplementary Table 4 for peptide sequences), 100 µM of either VDAC1-N peptide was added into the Bak-BclxL complex under cBid-activated conditions. […] For this experiment, Bad-BH3 peptide was titrated into the Bak-BclxL complex from 1 to 100 nM under cBid-activated conditions. The liposomes were prepared with the following lipid composition (mass percentage) to mimic the outer mitochondrial membrane (OMM), as previously described. Briefly, the OMM-like lipids were prepared by combining 38% L-α-phosphatidylcholine (PC), 25% L-α-phosphatidylethanolamine (PE), 10% L-α-phosphatidylinositol (PI), 10% 1,2-dioleyl-sn-glycero-3-phospho-L-serine (DOPS), 7% 1,1′,2,2′-tetra-(9Z-octadecenoyl)cardiolipin, and 10% 18:1 DGS-NTA (Ni^2+). For the liposome permeabilization assay at low BakΔTM concentrations (50–200 nM), 2–5% 18:1 DGS-NTA (Ni^2+) was used, and the mass of PC was adjusted to compensate. The lipids (5 mg) were mixed in chloroform and dried under nitrogen gas flow, resuspended in 0.25 mL of assay buffer (10 mM HEPES, pH 7.0, 200 mM KCl, 5 mM MgCl2), sonicated in a sonication bath until homogenous, subjected to five freeze-thaw cycles, then extruded using a 100 nm polycarbonate membrane. The liposomes were prepared with the addition of the polyanionic dye 8-aminoaphthalene-1,3,6-trisulfonic acid (ANTS) and the cationic quencher p-xylene-bis-pyridinium bromide (DPX) as described[66],[91]. For experiments at low BakΔTM concentrations (50–200 nM), 0.05–0.15 mg/mL OMM-like lipids doped with 2–5% (w/w) 18:1 DGS-NTA (Ni^2+) were used. For experiments under BakΔTM auto-active conditions, 0.3 mg/mL OMM-like lipids doped with 10% (w/w) 18:1 DGS-NTA (Ni^2+) were used. All resulting data were averaged from three technical replicates unless a clear outlier due to experimental artifact was removed. Data analysis was performed by first normalizing to the minimum value in each dataset, then calculating the mean for the technical replicates. […] The data are represented as relative ANTS fluorescence (%).

Bak-BclxL complex [1] = test: Liposome permeabilization (pore-forming) assay, cBid-activated Bak inhibited by BclxL; assay type: biochemical, human
Bak-BclxL complex [2] = test: Liposome permeabilization (pore-forming) assay, auto-active BakΔTM conditions, inhibited by BclxL; assay type: biochemical, human
Experimental: The liposome permeabilization assays were performed at 30 °C on a SpectraMax iD5 multimode plate reader (Molecular Devices) controlled by the SoftMax Pro 7 software as previously described[66],[91]. Briefly, 40–50 nM cBid, 50 nM BclxLΔTM, and 1–100 µM VDAC-N peptides were used for measurements at low BakΔTM concentrations (50–200 nM), whereas 1 µM BakΔTM and 500 nM BclxLΔTM were used for measurements under auto-active BakΔTM conditions. VDAC1-N peptide was titrated into the Bak-BclxL complex from 10 to 100 µM under cBid-activated conditions and from 25 to 100 µM under auto-active BakΔTM conditions. For comparison of VDAC1-N WT peptide to VDAC1-N L10A (refer to Supplementary Table 4 for peptide sequences), 100 µM of either VDAC1-N peptide was added into the Bak-BclxL complex under cBid-activated conditions. […] For this experiment, Bad-BH3 peptide was titrated into the Bak-BclxL complex from 1 to 100 nM under cBid-activated conditions. The liposomes were prepared with the following lipid composition (mass percentage) to mimic the outer mitochondrial membrane (OMM), as previously described. Briefly, the OMM-like lipids were prepared by combining 38% L-α-phosphatidylcholine (PC), 25% L-α-phosphatidylethanolamine (PE), 10% L-α-phosphatidylinositol (PI), 10% 1,2-dioleyl-sn-glycero-3-phospho-L-serine (DOPS), 7% 1,1′,2,2′-tetra-(9Z-octadecenoyl)cardiolipin, and 10% 18:1 DGS-NTA (Ni^2+). For the liposome permeabilization assay at low BakΔTM concentrations (50–200 nM), 2–5% 18:1 DGS-NTA (Ni^2+) was used, and the mass of PC was adjusted to compensate. The lipids (5 mg) were mixed in chloroform and dried under nitrogen gas flow, resuspended in 0.25 mL of assay buffer (10 mM HEPES, pH 7.0, 200 mM KCl, 5 mM MgCl2), sonicated in a sonication bath until homogenous, subjected to five freeze-thaw cycles, then extruded using a 100 nm polycarbonate membrane. The liposomes were prepared with the addition of the polyanionic dye 8-aminoaphthalene-1,3,6-trisulfonic acid (ANTS) and the cationic quencher p-xylene-bis-pyridinium bromide (DPX) as described[66],[91]. For experiments at low BakΔTM concentrations (50–200 nM), 0.05–0.15 mg/mL OMM-like lipids doped with 2–5% (w/w) 18:1 DGS-NTA (Ni^2+) were used. For experiments under BakΔTM auto-active conditions, 0.3 mg/mL OMM-like lipids doped with 10% (w/w) 18:1 DGS-NTA (Ni^2+) were used. All resulting data were averaged from three technical replicates unless a clear outlier due to experimental artifact was removed. Data analysis was performed by first normalizing to the minimum value in each dataset, then calculating the mean for the technical replicates. The data represented in each of the figures was scaled such that 0 represents the BakΔTM-BclxLΔTM complex and 1 represents either auto-activated BakΔTM or cBid-activated BakΔTM. The data are represented as relative ANTS fluorescence (%).

SMILES: CSCC[C@H](N)C(=O)N[C@@H](C)C(=O)N[C@H](C(=O)N1CCC[C@H]1C(=O)N1CCC[C@H]1C(=O)N[C@H](C(=O)N[C@@H](Cc1ccc(O)cc1)C(=O)N[C@@H](C)C(=O)N[C@@H](CC(=O)O)C(=O)N[C@@H](CC(C)C)C(=O)NCC(=O)N[C@@H](CCCCN)C(=O)N[C@@H](CO)C(=O)N[C@@H](C)C(=O)N[C@@H](CCCNC(=N)N)C(=O)N[C@@H](CC(=O)O)C(=O)N[C@H](C(=O)N[C@@H](Cc1ccccc1)C(=O)N[C@H](C(=O)N[C@@H](CCCCN)C(=O)NCC(=O)N[C@@H](Cc1ccc(O)cc1)C(=O)NCC(=O)N[C@@H](Cc1ccccc1)C(=O)O)[C@@H](C)O)C(C)C)[C@@H](C)O)C(C)C [VDAC1-N]
- direct activation of Bak pore formation (in words) (BakΔTM; linear peptide 1 mM, Bak 50 nM): do not directly activate Bak
- direct activation of Bak pore formation (in words) (BakΔTM; peptide 70 µM, Bak 50 nM): does not lead to Bak activation

SMILES: CC(C)C[C@H](NC(=O)[C@H](CC(=O)O)NC(=O)[C@H](C)NC(=O)[C@@H](N)Cc1ccc(O)cc1)C(=O)N[C@@]1(C)CCCC=CCCC[C@@](C)(C(=O)N[C@@H](CC(=O)O)C(=O)N[C@H](C(=O)N[C@@H](Cc2ccccc2)C(=O)N[C@H](C(=O)N[C@@H](CCCCN)C(=O)NCC(=O)O)[C@@H](C)O)C(C)C)NC(=O)[C@H](C)NC(=O)[C@H](CO)NC(=O)[C@H](CCCCN)NC1=O [stVDAC1-N] (H-YADL[S5]KSA[S5]DVFTKG-OH; staple 5-9; N-terminus and C-terminus assumed)
- relative ANTS fluorescence (Bak pore formation) (Bak-BclxL complex [1]; as E12, stVDAC1-N 10 µM, replicate 1): 0.09107
- relative ANTS fluorescence (Bak pore formation) (Bak-BclxL complex [1]; as E12, stVDAC1-N 10 µM, replicate 2): -0.01668
- relative ANTS fluorescence (Bak pore formation) (Bak-BclxL complex [1]; as E12 but stVDAC1-N 25 µM (row VDAC25), mean of n = 3 technical replicates): 0.4925
- relative ANTS fluorescence (Bak pore formation) (Bak-BclxL complex [1]; as E12 but stVDAC1-N 25 µM, replicate 1): 0.4653
- relative ANTS fluorescence (Bak pore formation) (Bak-BclxL complex [1]; as E12 but stVDAC1-N 25 µM, replicate 2): 0.51
- relative ANTS fluorescence (Bak pore formation) (Bak-BclxL complex [1]; as E12 but stVDAC1-N 25 µM, replicate 3): 0.5021
- relative ANTS fluorescence (Bak pore formation) (Bak-BclxL complex [1]; as E12 but stVDAC1-N 50 µM (row VDAC50), mean of n = 3 technical replicates): 0.571
- relative ANTS fluorescence (Bak pore formation) (Bak-BclxL complex [1]; as E12 but stVDAC1-N 50 µM, replicate 1): 0.5785
- relative ANTS fluorescence (Bak pore formation) (Bak-BclxL complex [1]; as E12 but stVDAC1-N 50 µM, replicate 2): 0.6003
- relative ANTS fluorescence (Bak pore formation) (Bak-BclxL complex [1]; as E12 but stVDAC1-N 50 µM, replicate 3): 0.534
- relative ANTS fluorescence (Bak pore formation) (Bak-BclxL complex [1]; as E12 but stVDAC1-N 75 µM (row VDAC75), mean of n = 3 technical replicates): 0.9595
- relative ANTS fluorescence (Bak pore formation) (Bak-BclxL complex [1]; as E12 but stVDAC1-N 75 µM, replicate 1): 0.889
- relative ANTS fluorescence (Bak pore formation) (Bak-BclxL complex [1]; as E12 but stVDAC1-N 75 µM, replicate 2): 0.9981
- relative ANTS fluorescence (Bak pore formation) (Bak-BclxL complex [1]; as E12 but stVDAC1-N 75 µM, replicate 3): 0.9914
- relative ANTS fluorescence (Bak pore formation) (Bak-BclxL complex [1]; as E12 but stVDAC1-N 100 µM (row VDAC100), mean of n = 3 technical replicates): 0.9103
- relative ANTS fluorescence (Bak pore formation) (Bak-BclxL complex [1]; as E12 but stVDAC1-N 100 µM, replicate 1): 0.8985
- relative ANTS fluorescence (Bak pore formation) (Bak-BclxL complex [1]; as E12 but stVDAC1-N 100 µM, replicate 2): 0.9408
- relative ANTS fluorescence (Bak pore formation) (Bak-BclxL complex [1]; as E12 but stVDAC1-N 100 µM, replicate 3): 0.8916
- relative ANTS fluorescence (Bak pore formation) (Bak-BclxL complex [1]; stVDAC1-N 10 µM (row VDAC10), 50 nM BakΔTM, 40 nM cBid, 50 nM BclxLΔTM, 30 °C, averaged 3500-4000 s, scaled 0 = Bak-BclxL complex, 1 = cBid-activated Bak, mean of technical replicates): 0.0372
- direct activation of Bak pore formation (in words) (BakΔTM; peptide 40 µM, BakΔTM 50 nM, no BclxL, no cBid): cannot directly activate pore formation of Bak
- direct activation of Bak pore formation (in words) (BakΔTM; stapled peptide 100 µM, Bak 50 nM): do not directly activate Bak
- relative ANTS fluorescence (Bak pore formation), scaled to max (Bak-BclxL complex [2]; as E35, stVDAC1-N 25 µM, replicate 1): -0.0292
- relative ANTS fluorescence (Bak pore formation), scaled to max (Bak-BclxL complex [2]; as E35, stVDAC1-N 25 µM, replicate 2): 0.04874
- relative ANTS fluorescence (Bak pore formation), scaled to max (Bak-BclxL complex [2]; as E35 but stVDAC1-N 50 µM (row Mix50), mean of technical replicates): 0.3276
- relative ANTS fluorescence (Bak pore formation), scaled to max (Bak-BclxL complex [2]; as E35 but stVDAC1-N 50 µM, replicate 1): 0.2297
- relative ANTS fluorescence (Bak pore formation), scaled to max (Bak-BclxL complex [2]; as E35 but stVDAC1-N 50 µM, replicate 2): 0.2994
- relative ANTS fluorescence (Bak pore formation), scaled to max (Bak-BclxL complex [2]; as E35 but stVDAC1-N 50 µM, replicate 3): 0.4536
- relative ANTS fluorescence (Bak pore formation), scaled to max (Bak-BclxL complex [2]; as E35 but stVDAC1-N 75 µM (row Mix75), mean of technical replicates): 0.532
- relative ANTS fluorescence (Bak pore formation), scaled to max (Bak-BclxL complex [2]; as E35 but stVDAC1-N 75 µM, replicate 1): 0.33
- relative ANTS fluorescence (Bak pore formation), scaled to max (Bak-BclxL complex [2]; as E35 but stVDAC1-N 75 µM, replicate 2): 0.4526
- relative ANTS fluorescence (Bak pore formation), scaled to max (Bak-BclxL complex [2]; as E35 but stVDAC1-N 75 µM, replicate 3): 0.8134
- relative ANTS fluorescence (Bak pore formation), scaled to max (Bak-BclxL complex [2]; as E35 but stVDAC1-N 100 µM (row Mix100), mean of technical replicates): 0.7453
- relative ANTS fluorescence (Bak pore formation), scaled to max (Bak-BclxL complex [2]; as E35 but stVDAC1-N 100 µM, replicate 1): 0.6966
- relative ANTS fluorescence (Bak pore formation), scaled to max (Bak-BclxL complex [2]; as E35 but stVDAC1-N 100 µM, replicate 2): 0.663
- relative ANTS fluorescence (Bak pore formation), scaled to max (Bak-BclxL complex [2]; as E35 but stVDAC1-N 100 µM, replicate 3): 0.8764
- effect on pore-forming activity of BclxL-inhibited Bak (in words) (Bak-BclxL complex [2]; autoactivation conditions: 1 µM BakΔTM, 500 nM BclxLΔTM, peptide 25-100 µM): concentration-dependent increase in the pore-forming activity of Bak
- relative ANTS fluorescence (Bak pore formation), scaled to max (Bak-BclxL complex [2]; stVDAC1-N 25 µM (row Mix25), 1 µM BakΔTM (auto-active), 500 nM BclxLΔTM, 30 °C, averaged 4000-5000 s, scaled 0 = Bak-BclxL, 1 = auto-activated Bak, mean of at least two technical replicates): 0.009771
